Experimental data taken from ChEMBL document CHEMBL5614399, “Design and Assessment of First-Generation Heterobifunctional PPARα/STING Modulators” (ACS Med Chem Lett, 2024).

Columns and labels:
[1] = system: 661W; assay: Cytoprotective activity against 4HNE-induced mouse 661W cells assessed as reduction in ROS level at 1 uM preincubated for 2 hrs followed by 4-HNE addition and measured after 24 hrs in presence of SN-011 by CM-H2DCFDA staining based fluorescence analysis; format: functional, cell-based; conditions: time 26.0 hrs
[2] = system: 661W; assay: Cytoprotective activity against 4HNE-induced mouse 661W cells assessed as reduction in ROS level at 0.5 uM preincubated for 2 hrs followed by 4-HNE addition and measured after 24 hrs in presence of SN-011 by CM-H2DCFDA staining based fluorescence analysis; format: functional, cell-based
[3] = Cytotoxicity against human THP1-Lucia ISG cells assessed as reduction in cell viability at upto 50 uM by MTS method; format: toxicity, cell-based

Row | SMILES | Activity [1] | Activity [2] | Activity [3]
1 | O=C(O)c1cc(F)cc(NCc2ccc(-c3ccc(F)cc3)cc2)c1 | Active | Active | 
2 | O=C(O)c1cc(NCc2ccc(-c3ccc(F)cc3)cc2)ccc1O |  |  | Non-Toxic

Activity calls are given as the source filed them. The calls are words filed in the database; no cut-off is given here.
